Experimental data: patent EP4831189A1, “KINASE INHIBITOR ACTIVATED IN TUMOR MICROENVIRONMENT, COMPOSITION AND USE” (dated 2026)

Sequences of proteins named here, by UniProt entry; tags and fusion partners are left off. Residues count along the entry.
UniProt P08581, 25-1390 limits assumed: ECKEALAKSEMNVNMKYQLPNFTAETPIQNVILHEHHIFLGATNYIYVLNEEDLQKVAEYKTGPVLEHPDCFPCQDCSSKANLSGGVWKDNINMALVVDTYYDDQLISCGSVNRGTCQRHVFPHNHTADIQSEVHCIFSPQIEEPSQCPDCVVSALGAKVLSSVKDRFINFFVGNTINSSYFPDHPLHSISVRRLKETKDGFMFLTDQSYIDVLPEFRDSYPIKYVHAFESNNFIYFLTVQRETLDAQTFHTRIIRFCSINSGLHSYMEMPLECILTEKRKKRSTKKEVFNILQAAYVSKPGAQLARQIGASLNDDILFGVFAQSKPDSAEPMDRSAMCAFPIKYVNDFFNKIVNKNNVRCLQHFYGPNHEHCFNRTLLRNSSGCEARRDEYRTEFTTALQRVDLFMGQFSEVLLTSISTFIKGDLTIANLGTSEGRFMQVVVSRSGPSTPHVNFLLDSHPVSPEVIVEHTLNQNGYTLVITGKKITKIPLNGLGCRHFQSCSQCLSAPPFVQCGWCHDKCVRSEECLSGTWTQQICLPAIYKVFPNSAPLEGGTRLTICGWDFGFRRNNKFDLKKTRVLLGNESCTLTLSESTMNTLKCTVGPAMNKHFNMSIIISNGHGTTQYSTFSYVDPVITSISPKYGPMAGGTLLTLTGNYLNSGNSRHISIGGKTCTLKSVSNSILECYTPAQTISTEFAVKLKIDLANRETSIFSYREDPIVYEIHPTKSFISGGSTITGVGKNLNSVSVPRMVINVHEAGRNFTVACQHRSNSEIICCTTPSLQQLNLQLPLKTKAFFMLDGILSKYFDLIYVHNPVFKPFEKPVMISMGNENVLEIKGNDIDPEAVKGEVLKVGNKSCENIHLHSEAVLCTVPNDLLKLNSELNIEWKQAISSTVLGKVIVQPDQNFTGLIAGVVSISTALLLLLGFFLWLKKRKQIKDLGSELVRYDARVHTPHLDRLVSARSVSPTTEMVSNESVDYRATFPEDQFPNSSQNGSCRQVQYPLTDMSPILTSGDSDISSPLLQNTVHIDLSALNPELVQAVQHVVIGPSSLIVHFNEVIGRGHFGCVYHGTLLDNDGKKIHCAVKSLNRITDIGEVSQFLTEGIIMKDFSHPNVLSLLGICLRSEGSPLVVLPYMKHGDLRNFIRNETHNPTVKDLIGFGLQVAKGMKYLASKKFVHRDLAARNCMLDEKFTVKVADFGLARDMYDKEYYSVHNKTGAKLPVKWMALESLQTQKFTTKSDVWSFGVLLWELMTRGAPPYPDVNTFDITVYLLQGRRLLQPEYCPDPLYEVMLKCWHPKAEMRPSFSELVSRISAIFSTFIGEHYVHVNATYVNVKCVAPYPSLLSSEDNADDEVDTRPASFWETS
UniProt P35968, 20-1356 limits assumed: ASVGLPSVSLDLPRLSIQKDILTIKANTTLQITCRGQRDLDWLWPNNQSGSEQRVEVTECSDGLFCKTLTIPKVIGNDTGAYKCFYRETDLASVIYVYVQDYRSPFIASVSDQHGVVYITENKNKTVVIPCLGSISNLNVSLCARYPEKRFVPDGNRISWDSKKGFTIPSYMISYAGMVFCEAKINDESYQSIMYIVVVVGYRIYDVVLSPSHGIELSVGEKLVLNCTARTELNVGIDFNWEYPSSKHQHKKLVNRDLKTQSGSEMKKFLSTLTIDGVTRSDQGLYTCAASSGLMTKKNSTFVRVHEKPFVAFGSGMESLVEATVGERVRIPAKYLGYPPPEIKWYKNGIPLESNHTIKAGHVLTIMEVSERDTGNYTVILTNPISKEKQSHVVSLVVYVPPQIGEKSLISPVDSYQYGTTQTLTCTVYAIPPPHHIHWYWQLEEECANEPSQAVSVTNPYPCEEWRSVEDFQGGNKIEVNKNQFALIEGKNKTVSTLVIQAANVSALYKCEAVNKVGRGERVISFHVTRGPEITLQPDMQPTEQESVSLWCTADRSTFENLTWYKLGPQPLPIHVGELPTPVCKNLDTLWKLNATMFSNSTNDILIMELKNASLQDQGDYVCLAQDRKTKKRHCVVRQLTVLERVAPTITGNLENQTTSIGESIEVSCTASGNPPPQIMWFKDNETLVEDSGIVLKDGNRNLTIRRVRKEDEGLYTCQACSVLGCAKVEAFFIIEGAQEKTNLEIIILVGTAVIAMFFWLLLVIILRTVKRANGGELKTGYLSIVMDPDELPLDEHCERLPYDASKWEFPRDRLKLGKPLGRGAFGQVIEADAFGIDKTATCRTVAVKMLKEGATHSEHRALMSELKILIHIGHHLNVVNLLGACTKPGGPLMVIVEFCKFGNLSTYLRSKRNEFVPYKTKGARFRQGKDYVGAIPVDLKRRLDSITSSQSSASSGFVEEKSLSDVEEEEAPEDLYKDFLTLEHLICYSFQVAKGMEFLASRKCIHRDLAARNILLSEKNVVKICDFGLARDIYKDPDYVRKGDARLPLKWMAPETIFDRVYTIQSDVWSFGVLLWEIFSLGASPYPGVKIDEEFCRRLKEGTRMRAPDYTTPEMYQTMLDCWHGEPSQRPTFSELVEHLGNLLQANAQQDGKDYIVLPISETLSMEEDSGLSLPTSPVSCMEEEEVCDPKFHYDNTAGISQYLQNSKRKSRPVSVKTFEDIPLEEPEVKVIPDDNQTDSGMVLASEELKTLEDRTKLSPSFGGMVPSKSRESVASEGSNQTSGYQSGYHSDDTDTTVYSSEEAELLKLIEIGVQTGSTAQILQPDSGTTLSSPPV
UniProt P30530, 26-894 limits assumed: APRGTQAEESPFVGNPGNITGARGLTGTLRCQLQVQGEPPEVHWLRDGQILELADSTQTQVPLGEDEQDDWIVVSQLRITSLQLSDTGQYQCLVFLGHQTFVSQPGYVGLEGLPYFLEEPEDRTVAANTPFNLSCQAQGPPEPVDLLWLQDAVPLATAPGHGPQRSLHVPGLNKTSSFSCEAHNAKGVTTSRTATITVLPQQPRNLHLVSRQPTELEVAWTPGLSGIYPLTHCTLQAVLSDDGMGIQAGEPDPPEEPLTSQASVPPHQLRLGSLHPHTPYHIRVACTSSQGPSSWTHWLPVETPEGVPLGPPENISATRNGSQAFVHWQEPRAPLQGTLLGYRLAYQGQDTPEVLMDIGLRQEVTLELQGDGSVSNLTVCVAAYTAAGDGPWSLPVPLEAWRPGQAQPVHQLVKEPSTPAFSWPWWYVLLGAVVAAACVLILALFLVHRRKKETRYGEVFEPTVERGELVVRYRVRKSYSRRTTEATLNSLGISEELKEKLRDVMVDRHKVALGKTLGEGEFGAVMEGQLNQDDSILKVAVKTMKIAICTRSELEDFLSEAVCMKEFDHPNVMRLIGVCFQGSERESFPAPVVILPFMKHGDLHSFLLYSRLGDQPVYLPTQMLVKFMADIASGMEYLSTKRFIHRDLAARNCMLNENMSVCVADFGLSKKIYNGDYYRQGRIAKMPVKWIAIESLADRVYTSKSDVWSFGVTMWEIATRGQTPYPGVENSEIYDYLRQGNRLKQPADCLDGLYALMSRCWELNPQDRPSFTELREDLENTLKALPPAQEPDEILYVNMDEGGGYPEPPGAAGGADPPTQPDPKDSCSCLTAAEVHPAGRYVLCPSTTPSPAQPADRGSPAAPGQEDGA
UniProt P10721, 26-976 limits assumed: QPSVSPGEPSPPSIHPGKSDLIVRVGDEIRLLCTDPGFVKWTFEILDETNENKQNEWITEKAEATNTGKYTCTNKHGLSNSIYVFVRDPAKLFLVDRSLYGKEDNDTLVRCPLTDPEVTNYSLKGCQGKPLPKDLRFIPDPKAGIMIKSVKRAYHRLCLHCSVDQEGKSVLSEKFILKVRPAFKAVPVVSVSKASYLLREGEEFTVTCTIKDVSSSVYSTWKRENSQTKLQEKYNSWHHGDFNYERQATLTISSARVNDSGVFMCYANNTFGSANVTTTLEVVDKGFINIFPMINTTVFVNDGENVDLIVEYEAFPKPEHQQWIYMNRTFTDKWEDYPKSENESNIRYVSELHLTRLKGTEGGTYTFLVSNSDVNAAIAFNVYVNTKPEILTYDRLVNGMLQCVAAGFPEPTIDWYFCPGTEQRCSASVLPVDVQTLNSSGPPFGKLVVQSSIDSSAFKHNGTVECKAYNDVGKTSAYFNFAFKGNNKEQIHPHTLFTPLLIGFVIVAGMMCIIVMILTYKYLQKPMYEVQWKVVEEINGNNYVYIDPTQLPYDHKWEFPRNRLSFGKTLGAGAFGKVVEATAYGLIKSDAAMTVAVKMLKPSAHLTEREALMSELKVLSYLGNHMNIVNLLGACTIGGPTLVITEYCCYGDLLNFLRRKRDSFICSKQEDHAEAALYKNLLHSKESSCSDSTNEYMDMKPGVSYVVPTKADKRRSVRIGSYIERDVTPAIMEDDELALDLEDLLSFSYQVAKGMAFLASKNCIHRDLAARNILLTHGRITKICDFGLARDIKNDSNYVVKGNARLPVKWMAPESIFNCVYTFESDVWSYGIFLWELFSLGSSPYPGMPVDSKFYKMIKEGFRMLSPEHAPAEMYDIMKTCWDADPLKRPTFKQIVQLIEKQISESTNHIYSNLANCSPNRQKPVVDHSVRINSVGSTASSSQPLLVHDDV
UniProt P36888, 27-993 limits assumed: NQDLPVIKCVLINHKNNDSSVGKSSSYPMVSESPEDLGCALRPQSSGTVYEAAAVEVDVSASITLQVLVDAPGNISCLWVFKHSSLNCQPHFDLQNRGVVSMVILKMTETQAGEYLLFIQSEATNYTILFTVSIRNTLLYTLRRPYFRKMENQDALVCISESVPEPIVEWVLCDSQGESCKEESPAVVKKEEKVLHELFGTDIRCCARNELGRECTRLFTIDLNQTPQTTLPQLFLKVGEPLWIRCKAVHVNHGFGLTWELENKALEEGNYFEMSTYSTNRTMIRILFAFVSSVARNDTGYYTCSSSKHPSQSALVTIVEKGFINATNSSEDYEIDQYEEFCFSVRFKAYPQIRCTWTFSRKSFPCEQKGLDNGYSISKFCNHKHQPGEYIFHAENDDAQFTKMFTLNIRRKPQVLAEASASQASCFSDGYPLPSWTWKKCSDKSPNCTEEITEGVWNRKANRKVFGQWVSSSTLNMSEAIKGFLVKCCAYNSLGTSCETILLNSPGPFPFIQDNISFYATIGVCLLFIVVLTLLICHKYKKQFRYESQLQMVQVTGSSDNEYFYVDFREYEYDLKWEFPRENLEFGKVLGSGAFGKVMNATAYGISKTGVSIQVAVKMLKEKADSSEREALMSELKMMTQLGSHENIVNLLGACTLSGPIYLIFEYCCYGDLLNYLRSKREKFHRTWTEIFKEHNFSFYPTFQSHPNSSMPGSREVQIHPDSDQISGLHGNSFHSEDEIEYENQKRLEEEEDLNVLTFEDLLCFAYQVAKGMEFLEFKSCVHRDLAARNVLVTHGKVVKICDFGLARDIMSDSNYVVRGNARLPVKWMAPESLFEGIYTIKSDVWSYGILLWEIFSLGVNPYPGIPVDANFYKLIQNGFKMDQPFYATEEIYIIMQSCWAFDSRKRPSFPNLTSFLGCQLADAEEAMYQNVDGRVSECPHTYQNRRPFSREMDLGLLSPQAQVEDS

Key:
A549 cells = experiment: Cytotoxicity study (MTT) on A549 cells; conditions: 48 hours, 0 to 100 µM
mouse xenograft CT-26 = experiment: Efficacy study in CT-26 tumor model (Embodiment 11); conditions: for Body weight vs D0 D20 / Tumor volume (mean ± SEM) D20: CT-26, dose not given; for tumor inhibition effect: CT-26 syngeneic xenograft model, compared with the normal saline group
MDA-MB-231 tumor model = experiment: Efficacy study in MDA-MB-231 tumor model (Embodiment 14); conditions: for tumor inhibition effect: MDA-MB-231 tumor model, compared with the normal saline group
B16F10 cells = experiment: Cytotoxicity study (MTT) on B16F10 cells; conditions: 48 hours, 0 to 100 µM
mouse xenograft HUH7 = experiment: Efficacy study in HUH7 tumor model (Embodiment 13); conditions: for Body weight vs D0 D36 / Tumor size (mean + SEM) D36: HUH7, dose not given; for tumor inhibition effect: HUH7 xenograft model, compared with the normal saline group
mouse xenograft MKN45 = experiment: Efficacy study in MKN45 tumor model (Embodiment 12); conditions: for tumor inhibition effect: MKN45 xenograft model, compared with the normal saline group
Met = Met (Homo sapiens, UniProt P08581); experiment: Kinase inhibitory activity by ADP-Glo method; conditions: read-out: IC50 Met
KDR (VEGFR2) = KDR (VEGFR2) (Homo sapiens, UniProt P35968); experiment: Kinase inhibitory activity by ADP-Glo method; conditions: read-out: IC50 KDR (VEGFR2)
AXL = AXL (Homo sapiens, UniProt P30530); experiment: Kinase inhibitory activity by ADP-Glo method; conditions: read-out: IC50 AXL
Kit = Kit (Homo sapiens, UniProt P10721); experiment: Kinase inhibitory activity by ADP-Glo method; conditions: read-out: IC50 Kit
FLT3 = FLT3 (Homo sapiens, UniProt P36888); experiment: Kinase inhibitory activity by ADP-Glo method; conditions: read-out: IC50 FLT3
[1] = MDA-MB-231, dose not given, D36

Structure (SMILES): COc1cc2c(Oc3ccc(NC(=O)C4(C(=O)Nc5ccc(F)cc5)CC4)cc3F)ccnc2cc1OCCCN1CCNCC1
- toxicity to A549 cells (A549 cells): stronger than that of foretinib
- Body weight vs D0 D20 (mouse xenograft CT-26): 13.4%
- Tumor volume (mean ± SEM) D20 (mouse xenograft CT-26): 3047.86 ± 1271.21 mm^3
- tumor inhibition effect (mouse xenograft CT-26): did not exhibit a tumor inhibition effect
- Body weight vs D0 D36 (MDA-MB-231 tumor model; [1]): 2.7%
- Tumor growth inhibition rate TGI D36 (MDA-MB-231 tumor model; [1]): 0.13%
- tumor inhibition effect (MDA-MB-231 tumor model): did not exhibit a tumor inhibition effect
- toxicity to B16F10 cells (B16F10 cells): stronger than that of foretinib
- Body weight vs D0 D36 (mouse xenograft HUH7): 8.8%
- Tumor size (mean + SEM) D36 (mouse xenograft HUH7): 1614.49 ± 323.28 mm^3
- tumor inhibition effect (mouse xenograft HUH7): did not exhibit a tumor inhibition effect
- Body weight vs D0 D28 (mouse xenograft MKN45; MKN45, 7.90 µmol/kg, D28): -1.8%
- Tumor growth inhibition rate TGI D28 (mouse xenograft MKN45; MKN45, 7.90 µmol/kg, D28): -0.21%
- Tumor volume (mean ± SEM) D36 (mouse xenograft MKN45; MKN45, 7.90 µmol/kg): 1082.48 ± 52.47 mm^3
- tumor inhibition effect (mouse xenograft MKN45): did not exhibit a tumor inhibition effect
- IC50 (Met): 9.13 nM
- IC50 (KDR (VEGFR2)): 2.34 nM
- IC50 (AXL): 0.23 nM
- IC50 (Kit): 9.1 nM
- IC50 (FLT3): 7.5 nM

Structure (SMILES): COc1cc2c(Oc3ccc(NC(=O)C4(C(=O)Nc5ccc(F)cc5)CC4)cc3F)ccnc2cc1OCCCN1CCOCC1
- Body weight vs D0 D20 (mouse xenograft CT-26): 19.3%
- Tumor volume (mean ± SEM) D20 (mouse xenograft CT-26): 1656.25 ± 369.27 mm^3
- tumor inhibition effect (mouse xenograft CT-26): good tumor inhibition effects
- Tumor growth inhibition rate TGI D36 (MDA-MB-231 tumor model; [1]): 47.70%
- tumor inhibition effect (MDA-MB-231 tumor model): good tumor inhibition effects
- Body weight vs D0 D36 (mouse xenograft HUH7): 18.4%
- Tumor size (mean + SEM) D36 (mouse xenograft HUH7): 2509.13 ± 902.2 mm^3
- tumor inhibition effect (mouse xenograft HUH7): good tumor inhibition effects
- Tumor growth inhibition rate TGI D28 (mouse xenograft MKN45; MKN45, 7.90 µmol/kg, D28): 40.76%
- Tumor volume (mean ± SEM) D36 (mouse xenograft MKN45; MKN45, 7.90 µmol/kg): 695.24 ± 63.91 mm^3
- tumor inhibition effect (mouse xenograft MKN45): good tumor inhibition effects
